The source of these data is US8022102B2, “Unsaturated tetracyclic tetrahydrofuran derivatives” (Janssen Pharmaceutica, NV, priority 2004, dated 2011).

By UniProt entry, the sequences of proteins in these tests, tags left out. Where a name states a change or a piece, a line headed by the entry shows the natural chain unless it says otherwise. Residues count along the entry.
UniProt P28335, 33-458: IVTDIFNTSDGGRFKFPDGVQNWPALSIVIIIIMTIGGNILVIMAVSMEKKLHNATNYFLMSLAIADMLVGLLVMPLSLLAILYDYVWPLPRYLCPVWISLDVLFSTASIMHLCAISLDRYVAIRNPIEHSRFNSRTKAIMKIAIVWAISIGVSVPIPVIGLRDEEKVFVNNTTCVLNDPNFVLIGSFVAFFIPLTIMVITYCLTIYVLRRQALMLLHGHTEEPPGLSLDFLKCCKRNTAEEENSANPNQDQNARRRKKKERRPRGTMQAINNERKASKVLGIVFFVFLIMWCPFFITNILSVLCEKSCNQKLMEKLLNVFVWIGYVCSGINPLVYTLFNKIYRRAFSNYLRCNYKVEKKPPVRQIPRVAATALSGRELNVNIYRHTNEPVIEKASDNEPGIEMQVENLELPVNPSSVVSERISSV
UniProt Q9WTR4, 1-597: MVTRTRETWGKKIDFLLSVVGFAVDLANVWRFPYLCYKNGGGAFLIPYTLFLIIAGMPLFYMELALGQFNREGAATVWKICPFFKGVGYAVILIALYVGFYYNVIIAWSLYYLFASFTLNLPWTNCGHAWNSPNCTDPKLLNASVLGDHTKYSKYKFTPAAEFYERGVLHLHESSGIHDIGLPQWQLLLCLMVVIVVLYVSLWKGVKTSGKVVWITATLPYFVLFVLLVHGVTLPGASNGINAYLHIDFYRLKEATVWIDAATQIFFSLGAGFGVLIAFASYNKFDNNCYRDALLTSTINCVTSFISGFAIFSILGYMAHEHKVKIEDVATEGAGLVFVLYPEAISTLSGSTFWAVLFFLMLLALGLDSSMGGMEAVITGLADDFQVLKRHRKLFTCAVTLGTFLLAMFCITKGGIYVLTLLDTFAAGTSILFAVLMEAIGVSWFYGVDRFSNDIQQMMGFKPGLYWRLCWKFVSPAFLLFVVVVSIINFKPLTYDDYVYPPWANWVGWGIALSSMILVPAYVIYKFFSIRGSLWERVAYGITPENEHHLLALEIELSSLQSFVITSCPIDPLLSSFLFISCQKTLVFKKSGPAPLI
UniProt P28223, whole entry: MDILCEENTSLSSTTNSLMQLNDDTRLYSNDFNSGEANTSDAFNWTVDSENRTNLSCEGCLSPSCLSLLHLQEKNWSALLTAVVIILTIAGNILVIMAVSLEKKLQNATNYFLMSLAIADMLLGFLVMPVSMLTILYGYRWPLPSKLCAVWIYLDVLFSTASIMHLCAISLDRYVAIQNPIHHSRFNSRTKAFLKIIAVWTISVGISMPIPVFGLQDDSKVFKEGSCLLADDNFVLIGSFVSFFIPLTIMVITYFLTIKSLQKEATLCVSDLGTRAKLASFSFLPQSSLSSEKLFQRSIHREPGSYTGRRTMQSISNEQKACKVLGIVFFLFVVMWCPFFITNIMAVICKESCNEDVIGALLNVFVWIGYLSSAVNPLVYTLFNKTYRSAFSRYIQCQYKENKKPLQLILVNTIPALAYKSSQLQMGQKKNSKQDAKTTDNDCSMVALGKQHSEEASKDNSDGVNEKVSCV
UniProt P14416, whole entry: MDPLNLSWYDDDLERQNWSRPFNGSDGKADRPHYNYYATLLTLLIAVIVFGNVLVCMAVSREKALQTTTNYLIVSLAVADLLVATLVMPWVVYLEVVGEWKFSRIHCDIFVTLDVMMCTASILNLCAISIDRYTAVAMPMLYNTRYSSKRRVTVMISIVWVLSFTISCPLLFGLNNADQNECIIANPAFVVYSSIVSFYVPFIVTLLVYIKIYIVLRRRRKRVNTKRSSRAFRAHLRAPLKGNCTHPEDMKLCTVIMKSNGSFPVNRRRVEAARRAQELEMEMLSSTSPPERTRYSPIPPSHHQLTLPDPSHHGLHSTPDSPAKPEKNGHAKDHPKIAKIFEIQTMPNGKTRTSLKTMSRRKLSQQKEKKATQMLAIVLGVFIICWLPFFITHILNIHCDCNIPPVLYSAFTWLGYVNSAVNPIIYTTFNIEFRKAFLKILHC

Like-named read-outs stand apart in the source and are kept apart here. Bounds are passed on as bounds.

Assay [1] deals with T1, human cloned 5-HT2C receptor (Homo sapiens, UniProt P28335).
T1 construct: expressed in transfected cells; host or cells: CHO cells
In words: In vitro binding affinity for 5-HT2C receptor (radioligand binding). The conditions noted are these: read-out: h-5HT2C (converted). How it is done: (§1) The interaction of the compounds of Formula (I) with 5-HT2A and 5-HT2C receptors was assessed in in vitro radioligand binding experiments. […] During the incubation, the radioligands bind to the receptor. When equilibrium of binding is reached, the receptor bound radioactivity is separated from the non-bound radioactivity, and the receptor bound activity is counted. The interaction of the test compounds with the receptors is assessed in competition binding experiments. Various concentrations of the test compound are added to the incubation mixture containing the tissue preparation and the radioligand. Binding of the radioligand will be inhibited by the test compound in proportion to its binding affinity and its concentration.

Assay [2] has as its target T2, NET (Rattus norvegicus, UniProt Q9WTR4).
T2 construct: Cortex from rat brain was collected and homogenised; from tissue; host or cells: rat brain cortex
In words: In vitro determination of NET reuptake inhibition ([3H]Nixosetine binding, rat brain cortex). How it is done: Cortex from rat brain was collected and homogenised using an Ultra-Turrax T25 and a Dual homogeniser in ice-cold homogenising buffer containing Tris, NaCl and KCl (50 mM, 120 mM and 5 mM, respectively, pH 7.4) prior to dilution to an appropriate protein concentration optimised for specific and non-specific binding. […] Membrane-bound activity was detected by filtration through a Packard Filtermate harvester onto GF/B Unifilterplates, washed with ice-cold Tris-HCl buffer, containing NaCl and KCl (50 mM, 120 mM and 4 mM; pH 7.4; 6×0.5 ml). Filters were allowed to dry for 24 h before adding scintillation fluid. Scintillation fluid was allowed to saturate filters for 24 h before counting in a Topcount scintillation counter. Percentage specific bound and competition binding curves were calculated using S-Plus software (Insightful).

The target of assay [3] is T3, human cloned 5-HT2A receptor (Homo sapiens, UniProt P28223).
T3 construct: expressed in transfected cells; host or cells: L929 cells
Put plainly: In vitro binding affinity for 5-HT2A receptor (radioligand binding). To be noted: read-out: h-5HT2A (converted). How it is done: as §1, with “concentration. The affinities of the compounds for the 5-HT2 receptors were measured by means of radioligand binding studies conducted with: (a) human cloned 5-HT2A receptor, expressed in L929 cells using [^125I]R91150 as radioligand and (b) human cloned 5-HT2C receptor, expressed in CHO cells using [^3H]mesulergine as radioligand.” for “concentration.”

Assay [4] has as its target T4, human Dopamine D2L receptor (Homo sapiens, UniProt P14416).
T4 construct: expressed in transfected cells; host or cells: CHO cells
Put plainly: In vitro binding affinity for human D2L receptor ([3H]Spiperone). The conditions noted are these: human D2L receptor-transfected CHO cell membranes. How it is done: Frozen membranes of human Dopamine D2L receptor-transfected CHO cells were thawed, briefly homogenised using an Ultra-Turrax T25 homogeniser and diluted in Tris-HCl assay buffer containing NaCl, CaCl2, MgCl2, KCl (50, 120, 2, 1, and 5 mM respectively, adjusted to pH 7.7 with HCl) to an appropriate protein concentration optimised for specific and non-specific binding. Radioligand [^3H]Spiperone (NEN, specific activity ˜70 Ci/mmol) was diluted in assay buffer at a concentration of 2 nmol/L. Prepared radioligand (50 μl), along with 50 μl of either the 10% DMSO control, Butaclamol (10^−6 mol/l final concentration), or compound of interest, was then incubated (30 min, 37° C.) with 400 μl of the prepared membrane solution. Membrane-bound activity was filtered through a Packard Filtermate harvester onto GF/B Unifilterplates and washed with ice-cold Tris-HCl buffer (50 mM; pH 7.7; 6×0.5 ml). Filters were allowed to dry before adding scintillation fluid and counting in a Topcount scintillation counter. Percentage specific bound and competition binding curves were calculated using S-Plus software (Insightful).

[5] abbreviates: read-out: NET Reuptake Inhibition (converted).

Take `CN(C[C@H]1CC2=C(O1)c1cc(F)ccc1Cc1ccccc12)C1CC(=O)NC1=O` (mixture of isomers) [Compound 124]: the IC50 was 63.1 nM in assay [1] and 6310 nM in assay [2] (setting [5]).
Turning to `CNCC1CC2=C(O1)c1cc(F)ccc1Sc1ccccc12` (single isomer, unassigned) [Compound 14], the IC50 in assay [3] was 0.251 nM; in assay [2] (setting [5]), 2.51 nM; in assay [4], 25.1 nM.
`NCC1CC2=C(O1)c1cc(F)ccc1Cc1ccccc12` (stereo not shown) [Compound 1]: the IC50 in assay [2] (setting [5]) and in assay [4] was 316 nM in each case.
`CCCCc1ccc2c(c1)C1=C(CC(CNC)O1)c1ccccc1C2` (stereo not shown) [Compound 6]: the IC50 in assay [1] was 7.94 nM; in assay [2] (setting [5]), 7940 nM.
For the compound `CN(C)CC1CC2=C(O1)c1ccccc1Cc1ccccc12` (stereo not shown) [Compound 22], the IC50 was 79.4 nM in assay [2] (setting [5]) and 631 nM in assay [4].
As for `CN(C)CC1CC2=C(O1)c1cc(F)ccc1Oc1ccccc12` (stereo not shown) [Compound 26], the figures for the IC50 in assay [2] (setting [5]) and in assay [4] were 39.8 nM and 398 nM, respectively.
For the compound `CN(C)CC1CC2=C(O1)c1cc(Br)ccc1Oc1ccccc12` (stereo not shown) [Compound 27], the IC50 in assay [2] (setting [5]) is 501 nM; in assay [4], 50.1 nM.
Regarding `CN(C)CC1CC2=C(O1)c1cc(F)ccc1Sc1ccccc12` (stereo not shown) [Compound 28], the IC50 in assay [1] was 0.501 nM; in assay [2] (setting [5]), 5.01 nM.
For `CN(CCO)CC1CC2=C(O1)c1cc(F)ccc1Cc1ccccc12` (stereo not shown) [Compound 31], the IC50 in assay [2] (setting [5]) and in assay [4] was 39.8 nM throughout.
Regarding `OC1CCN(CC2CC3=C(O2)c2cc(F)ccc2Sc2ccccc23)C1` (stereo not shown) [Compound 34], the IC50 is 0.501 nM in assay [1] and 501 nM in assay [2] (setting [5]).
With `OC1CCN(CC2CC3=C(O2)c2cc(F)ccc2Cc2ccccc23)CC1` (stereo not shown) [Compound 36], the IC50 in assay [3] is 0.631 nM; in assay [1], 0.631 nM; in assay [2] (setting [5]), 6310 nM; in assay [4], 6.31 nM.
`CC(=O)N1CCN(CC2CC3=C(O2)c2cc(F)ccc2Oc2ccccc23)CC1` (stereo not shown) [Compound 54]: the IC50 in assay [2] (setting [5]) and in assay [4] was 1580 nM throughout.
As for `CCCCNC(=O)N1CCN(CC2CC3=C(O2)c2cc(F)ccc2Cc2ccccc23)CC1` (stereo not shown) [Compound 77], the IC50 in assay [1] was 7.94 nM; in assay [2] (setting [5]), 7940 nM.
For the compound `CCCCNC(=O)N1CCN(CC2CC3=C(O2)c2cc(F)ccc2Oc2ccccc23)CC1` (stereo not shown) [Compound 78], the IC50 in assay [2] (setting [5]) and in assay [4] was 1260 nM in each case.
For `O=C(NC1CCCCC1)N1CCN(CC2CC3=C(O2)c2cc(F)ccc2Cc2ccccc23)CC1` (stereo not shown) [Compound 79], the IC50 was 79.4 nM in assay [1] and 7940 nM in assay [2] (setting [5]).
As to `O=C(Nc1ccccc1)N1CCN(CC2CC3=C(O2)c2cc(F)ccc2Cc2ccccc23)CC1` (stereo not shown) [Compound 83], the IC50 in assay [2] (setting [5]) is 5010 nM.
On to `O=C(Nc1ccccc1)N1CCN(CC2CC3=C(O2)c2cc(F)ccc2Oc2ccccc23)CC1` (stereo not shown) [Compound 84], for which the IC50 in assay [2] (setting [5]) was 1580 nM.
Regarding `O=C(Nc1ccc(F)cc1)N1CCN(CC2CC3=C(O2)c2cc(F)ccc2Cc2ccccc23)CC1` (stereo not shown) [Compound 85], the figures for the IC50 in assay [1] and in assay [2] (setting [5]) were 5.01 nM and 5010 nM, respectively.
For `COc1ccc(NC(=O)N2CCN(CC3CC4=C(O3)c3cc(F)ccc3Cc3ccccc34)CC2)cc1` (stereo not shown) [Compound 89], the IC50 in assay [2] (setting [5]) was 6310 nM.
The same measure, in the same setting: under `COc1ccc(NC(=O)N2CCN(CC3CC4=C(O3)c3cc(F)ccc3Oc3ccccc34)CC2)cc1` (stereo not shown) [Compound 90] stands 2000 nM; under `COc1ccccc1NC[C@@H]1CC2=C(O1)c1cc(F)ccc1Cc1ccccc12` [Compound 106], above 10000 nM.
Still for that read-out and setting: the value for `CN(CC(=O)O)C[C@H]1CC2=C(O1)c1cc(F)ccc1Cc1ccccc12` [Compound 107] was 1580 nM.
Consider `CN(C[C@H]1CC2=C(O1)c1cc(F)ccc1Cc1ccccc12)C(=O)Oc1ccccc1` [Compound 111], for which, in assay [2] (NET Reuptake Inhibition), the IC50 is above 10000 nM.
`CN(CC(=O)c1ccccc1)C[C@H]1CC2=C(O1)c1cc(F)ccc1Cc1ccccc12` [Compound 114]: in assay [2] (setting [5]), the IC50 was 100 nM.
As to `CN(CC(N)=O)C[C@H]1CC2=C(O1)c1cc(F)ccc1Cc1ccccc12` [Compound 115], the IC50 in assay [2] (setting [5]) was 501 nM.
On to `CN(CC(=O)Nc1ccccc1)C[C@H]1CC2=C(O1)c1cc(F)ccc1Cc1ccccc12` [Compound 118], for which the IC50 in assay [2] (setting [5]) is 6310 nM.
On the same count and under the same terms, under `COc1ccccc1NC(=O)CN(C)C[C@H]1CC2=C(O1)c1cc(F)ccc1Cc1ccccc12` [Compound 119] stands 5010 nM.
Still for that read-out and setting: under `CNC(=O)/C=C/CN(C)C[C@H]1CC2=C(O1)c1cc(F)ccc1Cc1ccccc12` [Compound 123] stands 200 nM; under `CN(Cc1nnn[nH]1)C[C@H]1CC2=C(O1)c1cc(F)ccc1Cc1ccccc12` [Compound 125], 79.4 nM.
Same read-out and setting: the value for `CNC(=N)CN(C)CC1CC2=C(O1)c1cc(F)ccc1Cc1ccccc12` (stereo not shown) [Compound 138] was 794 nM.
